The values below come from patent US11873288B2, “Inhibitors for soluble epoxide hydrolase (sEH) and fatty acid amide hydrolase (FAAH)” (The Regents of the University of California, priority 2016, dated 2024).

Sequences of proteins named here, by UniProt entry; tags and fusion partners are left off.
UniProt P34913, whole entry: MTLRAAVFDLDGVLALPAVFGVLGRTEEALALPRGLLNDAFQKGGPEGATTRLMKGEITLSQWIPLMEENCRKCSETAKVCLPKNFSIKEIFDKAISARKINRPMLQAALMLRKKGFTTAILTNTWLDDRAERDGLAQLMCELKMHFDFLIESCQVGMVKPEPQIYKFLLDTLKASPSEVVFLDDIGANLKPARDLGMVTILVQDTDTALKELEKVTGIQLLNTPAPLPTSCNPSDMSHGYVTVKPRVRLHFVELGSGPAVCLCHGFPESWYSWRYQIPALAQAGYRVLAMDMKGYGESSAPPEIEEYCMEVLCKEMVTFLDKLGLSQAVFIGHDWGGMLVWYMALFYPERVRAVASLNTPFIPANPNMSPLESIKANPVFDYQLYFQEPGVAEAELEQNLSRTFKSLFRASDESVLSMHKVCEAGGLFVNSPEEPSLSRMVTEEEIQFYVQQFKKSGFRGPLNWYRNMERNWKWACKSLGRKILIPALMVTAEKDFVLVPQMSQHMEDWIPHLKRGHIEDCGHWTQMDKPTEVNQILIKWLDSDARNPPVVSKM

This experiment addresses hsEH (Homo sapiens, UniProt P34913). The experiment can be described thus: human sEH inhibition (hsEH IC50). It counts as biochemical.

Molecule `CNC(=O)c1ccc(O[C@H]2CC[C@H](NC(=O)Nc3ccc(OC(F)(F)F)cc3)CC2)cc1` [Compound A-18] came in with an IC50 of 2 nM.

The term IC50 denotes the midpoint of a concentration-inhibition curve.
